The assay concerns the target human PDE2A1 (Homo sapiens (Human), UniProt O00408). In words: PDE2 fluorescence polarization (IMAP FP) inhibition assay, human enzyme. It counts as biochemical. Conditions: LabB; read-out: hPDE2 Ki (nM) LabB. As for the experimental part: The activity of the compounds in accordance with the present invention as PDE2 inhibitors may be readily determined using a fluorescence polarization (FP) methodology (Huang, W., et al., J. Biomol Screen, 2002, 7: 215).
Selectivity for PDE2, as compared to other PDE families, was assessed using the IMAPR technology. Human PDE10A2 enzyme was prepared from cytosolic fractions of transiently transfected HEK cells. […]
Assays for PDE 1 through 11 were performed in parallel at room temperature in 384-well microtiter plates with an incubation volume of 20.2 μL. […] The plates were incubated at room temperature for one hour, then the parallel and perpendicular fluorescence was measured using a Tecan Genios Pro plate reader (Tecan, Switzerland). The apparent inhibition constants for the compounds against all 11 PDE's was determined from the parallel and perpendicular fluorescent readings as described for PDE10 FP assay using the following apparent KM values for each enzyme and substrate combination: PDE1A (FAM cGMP) 70 nM, human PDE2A1 (FAM cAMP) 10,000 nM, PDE3A (FAM cAMP) 50 nM, PDE4A1A (FAM cAMP) 1500 nM, PDE5A1 (FAM cGMP) 400 nM, PDE6C (FAM cGMP) 700 nM, PDE7A (FAM cAMP) 150 nM, PDE8A1 (FAM cAMP) 50 nM, PDE9A2 (FAM cGMP) 60 nM, […] (FAM cAMP) 150 nM, PDE11A4 (FAM cAMP) 1000 nM. […]

Sequences of proteins named here, by UniProt entry; tags and fusion partners are left off. A line that says so, or that is headed by a name, gives the form on record, which may keep a tag or linker.
UniProt O00408, other isoform, or with tags, fused parts or gaps: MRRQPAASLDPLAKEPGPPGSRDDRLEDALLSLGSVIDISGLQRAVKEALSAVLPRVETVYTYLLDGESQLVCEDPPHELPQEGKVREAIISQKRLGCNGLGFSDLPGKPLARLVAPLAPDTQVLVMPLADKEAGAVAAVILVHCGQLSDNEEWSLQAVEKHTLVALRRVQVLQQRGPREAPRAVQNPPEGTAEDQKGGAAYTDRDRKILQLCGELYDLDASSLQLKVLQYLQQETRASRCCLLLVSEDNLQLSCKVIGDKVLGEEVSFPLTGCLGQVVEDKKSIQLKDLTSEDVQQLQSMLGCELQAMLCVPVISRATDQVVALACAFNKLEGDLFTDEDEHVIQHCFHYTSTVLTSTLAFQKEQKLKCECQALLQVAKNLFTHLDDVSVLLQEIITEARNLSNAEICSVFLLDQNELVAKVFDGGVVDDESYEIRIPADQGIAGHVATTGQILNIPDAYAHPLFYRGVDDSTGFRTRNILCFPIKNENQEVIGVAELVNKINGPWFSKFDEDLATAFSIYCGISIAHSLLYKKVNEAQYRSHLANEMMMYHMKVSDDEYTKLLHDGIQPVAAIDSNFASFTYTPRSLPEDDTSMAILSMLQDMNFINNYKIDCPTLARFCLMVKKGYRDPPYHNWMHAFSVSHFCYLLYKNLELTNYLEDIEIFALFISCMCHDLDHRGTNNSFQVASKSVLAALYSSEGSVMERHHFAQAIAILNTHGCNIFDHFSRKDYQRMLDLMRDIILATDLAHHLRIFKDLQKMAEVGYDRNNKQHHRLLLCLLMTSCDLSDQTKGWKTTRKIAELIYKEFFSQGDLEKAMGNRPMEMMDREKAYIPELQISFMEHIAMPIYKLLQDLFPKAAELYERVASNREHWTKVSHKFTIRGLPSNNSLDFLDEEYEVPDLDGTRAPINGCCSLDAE

`Cc1nc(-c2cn([C@H](C)c3ccc(C(F)(F)F)cc3F)cn2)cc(=O)[nH]1` (single isomer, unassigned) [Example 15]: the Ki was found to be 45 nM.

As a reminder, the Ki is the equilibrium dissociation constant of an inhibitor or competing ligand from its target.

The values are drawn from patent US10195201B2, “Heteroaryl-pyrimidinone compounds as PDE2 inhibitors” (Merck Sharp & Dohme Corp., priority 2015, dated 2019).
